## Reported properties for industrial, environmental and drug-like chemicals

Source: data files of OPERA 2.9 (Mansouri et al.), github.com/kmansouri/OPERA.

Melting points are in °C.
Boiling points are in °C, nominally at 760 mmHg.
logP is the log10 of the octanol-water partition coefficient; higher is more lipophilic.
Solubility in water is on a log10 molar scale (set defined at 25 °C).
Vapor pressures (log10 mmHg) refer to near room temperature, 15 to 30 °C; higher is more volatile.
The Henry's law constant is on a log10 scale in atm·m3/mol (set defined at 25 °C); higher favours air over water.
The unbound fraction in human plasma runs from 0 (all bound) to 1 (all free).
Intrinsic clearance (human, µL/min per 10^6 hepatocytes): higher is faster turnover, and 0 stands for none detected.
Cells with "–" have no entry in this list.

| compound | name | MP (°C) | boiling point (°C) | log Kow | water solubility (log10 mol/L) | log VP (log10 mmHg) | log H (log10 atm·m3/mol) | fu | Clint (µL/min/10^6 cells) |
|---|---|---|---|---|---|---|---|---|---|
| CCOP(=S)(OCC)OP(=S)(OCC)OCC | Sulfotepp | – | – | – | – | – | -5.353 | 0.0206 | 101 |
| N#C/N=C1SCCN1Cc1ccc(Cl)[n]c1 | – | – | – | – | – | – | – | 0.2866 | 2.57 |
| CCCCCCOC(N)=O | Carbamic acid, hexyl ester | 62 | – | – | -1.92 | – | – | – | – |
| C1CCC(NC2CCCCC2)CC1.CC(C)(F)C[C@H](N[C@@H](c1ccc(-c2ccc(S(C)(=O)=O)cc2)cc1)C(F)(F)F)C(=O)O | – | 208 | – | 0.945 | -3.506 | -4.655 | – | – | – |
| ClCc1ccc(CCl)cc1 | alpha,alpha'-Dichloro-p-xylene | – | – | 3 | -4.478 | – | – | – | – |
| CNC(=O)Oc1cccc(N=CN(C)C)c1.Cl | Formetanate hydrochloride | – | – | – | – | – | – | 0.8859 | 13.72 |
| CCCCCCCCCCCCC1=C(OC(C)=O)C(=O)c2ccccc2C1=O | Acequinocyl | – | – | – | -7.74 | -7.896 | – | – | – |
| CN1CC[C@]23c4c5ccc(OCCN6CCOCC6)c4O[C@H]2[C@@H](O)C=C[C@H]3[C@H]1C5 | Pholcodine | – | 577.8 | – | – | – | – | 0.76 | – |
| Clc1ccccc1-c1nnc(-c2ccccc2Cl)nn1 | Clofentezine | – | – | – | – | – | -5.78 | – | 0 |
| CCCCCCCCCCCC#N | n-Undecyl cyanide | – | – | 4.9 | -5.29 | – | – | – | – |
| CCCN1C[C@H](CSC)C[C@@H]2c3cccc4[nH]cc(c34)C[C@H]21 | Pergolide | – | – | 4 | -5.731 | – | – | 0.1 | – |
| N#Cc1ccccc1Cl | 2-Chlorobenzonitrile | – | – | 2.2 | – | -1.347 | – | – | – |
| NC1CCC(CC2CCC(N)CC2)CC1 (configuration not stated) | 4,4'-Diaminodicyclohexylmethane | – | – | 2.115 | -1.723 | -3.87 | – | – | – |
| C=CCc1cc(C(C)(C)c2ccc(O)c(CC=C)c2)ccc1O | 4,4'-Isopropylidenebis(2-allylphenol) | 15 | – | 4.12 | -3.996 | -6.39 | – | – | – |
| CC(C)CC(C)N (configuration not stated) | 1,3-Dimethylbutylamine | – | – | 1.2 | -4.108 | – | – | – | – |
| CCCCCCCCP(=O)(O)O | Octylphosphonic acid | – | – | -0.45 | -3.015 | – | – | – | – |
| Clc1cccc(-c2ccc(Cl)c(Cl)c2Cl)c1Cl | 2,2',3,3',4-Pentachlorobiphenyl | 119 | – | – | -7.05 | -4.824 | – | – | – |
| C=CCN1C[C@H](C(=O)N(CCCN(C)C)C(=O)NCC)C[C@@H]2c3cccc4[nH]cc(c34)C[C@H]21 | Cabergoline | – | – | 2.6 | -3.849 | – | – | – | – |
| CCCCOC(=O)CCC(C)(OOC(C)(C)C)OOC(C)(C)C | Butyl 4,4-di(tert-butylperoxy)valerate | -13.7 | – | – | – | -3.401 | – | – | – |
| CCOP(=S)(NC(C)C)Oc1ccccc1C(=O)OC(C)C (configuration not stated) | Isofenphos | – | – | – | – | – | – | 0.0105 | 158 |
| Oc1ccc(Cl)cc1Cc1cc(Cl)ccc1O | Dichlorophen | – | – | – | – | – | – | 0.0045 | 13.2 |
| O=C1NC(=O)N(Cc2ccccc2)C(=O)C1c1ccccc1 (configuration not stated) | 2,4,6(1H,3H,5H)-Pyrimidinetrione, 5-phenyl-1-(phenylmethyl)- | – | 342.8 | 2.57 | -3.206 | -8.782 | – | – | – |
| FC(F)(F)OC(F)(Cl)C(F)(F)Cl (configuration not stated) | 1,2-Dichloro-1,1,2-trifluoro-2-(trifluoromethoxy)ethane | – | – | 2.03 | -3.281 | 2.539 | – | – | – |
| O=C(CBr)Nc1ccc(Cl)cc1C(=O)c1ccccc1Cl | 2-Bromo-N-(4-chloro-2-(2-chlorobenzoyl)phenyl)acetamide | – | – | 3.7 | -6.889 | – | – | – | – |
| CC(C)OC(=O)OOC(=O)OC(C)C | Diisopropyl peroxydicarbonate | – | – | 2.73 | -3.83 | – | – | – | – |

2 of these entries, quoted again:

| compound | name | MP (°C) | boiling point (°C) | log Kow | water solubility (log10 mol/L) | log VP (log10 mmHg) | log H (log10 atm·m3/mol) | fu | Clint (µL/min/10^6 cells) |
|---|---|---|---|---|---|---|---|---|---|
| Clc1ccccc1-c1nnc(-c2ccccc2Cl)nn1 | Clofentezine | – | – | – | – | – | -5.78 | – | 0 |
| C=CCN1C[C@H](C(=O)N(CCCN(C)C)C(=O)NCC)C[C@@H]2c3cccc4[nH]cc(c34)C[C@H]21 | Cabergoline | – | – | 2.6 | -3.849 | – | – | – | – |

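OPERA's authors assembled the values from existing databases and did not measure them anew. The files give a single number for a compound and property, which may rest on several reports. How each value was measured is not recorded, so precision varies. The measured form (salt, isomer or mixture) is not always the one drawn. Some entries may be limits or estimates that an upstream database listed as plain numbers.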